Protein sequences, listed by entry. Tags and fused reporters are not part of them.
UniProt P35372, whole entry, looked up: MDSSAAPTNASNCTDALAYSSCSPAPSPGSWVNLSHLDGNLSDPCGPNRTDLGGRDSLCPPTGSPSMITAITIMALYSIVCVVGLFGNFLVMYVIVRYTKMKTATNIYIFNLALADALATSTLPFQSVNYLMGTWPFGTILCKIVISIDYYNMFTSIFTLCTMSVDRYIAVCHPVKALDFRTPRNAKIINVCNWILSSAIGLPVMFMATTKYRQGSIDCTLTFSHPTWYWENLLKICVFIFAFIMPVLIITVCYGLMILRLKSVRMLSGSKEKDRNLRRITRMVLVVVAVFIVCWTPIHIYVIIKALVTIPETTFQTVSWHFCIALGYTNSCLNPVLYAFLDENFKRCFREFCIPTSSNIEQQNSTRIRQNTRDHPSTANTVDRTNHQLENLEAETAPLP

In patent publication US20090253669A1, “Substituted Sulfonamide Compounds” (GRUENENTHAL GmbH, priority 2008, published 2009):

target: human μ opiate receptor (Homo sapiens, UniProt P35372); assay: [3H]-naloxone displacement, SPA, membranes of CHO-K1 cells; details: 1 μM test substance; inhibition of specific binding of 1 nmol/l [3H]-naloxone

How did the “μ opioid receptor [1 μM] % inhibition” value turn out when `CN(CCC1CCC(Cc2ccccc2)(N(C)C)CC1)C(=O)CC1CCCCN1S(=O)(=O)c1cccc(C(F)(F)F)c1` (centres unmarked) [Compound 95, N-(2-(4-benzyl-4-(dimethylamino)cyclohexyl)ethyl)-N-methyl-2-(1-(3-(trifluoromethyl)phenylsulfonyl)piperidin-2-yl)acetamide] was run?
Its value is 50%.

Which “μ opioid receptor [1 μM] % inhibition” value does the source give for `CN1CCN(C2(c3ccc(F)cc3)CCN(C(=O)CC(NS(=O)(=O)c3ccc4ccccc4c3)c3ccccc3)CC2)CC1` (centres unmarked) [Compound 96, N-(3-(4-(4-fluorophenyl)-4-(4-methylpiperazin-1-yl)piperidin-1-yl)-3-oxo-1-phenylpropyl)naphthalene-2-sulfonamide] here?
The value was 46%.

Which “μ opioid receptor [1 μM] % inhibition” value does the source give for `CN(C)C1(Cc2ccccc2)CCN(C(=O)CC2CCCCN2S(=O)(=O)c2cccc(C(F)(F)F)c2)CC1` (centres unmarked) [Compound 97, 1-(4-benzyl-4-(dimethylamino)piperidin-1-yl)-2-(1-(3-(trifluoromethyl)phenylsulfonyl)piperidin-2-yl)ethanone] here?
The value was 31%.

Which “μ opioid receptor [1 μM] % inhibition” value does the source give for `O=C(CC(NS(=O)(=O)c1ccc2ccccc2c1)c1ccccc1)N1CCC(c2ccccc2)(N2CCN(c3ccncc3)CC2)CC1` (centres unmarked) [Compound 98, N-(3-oxo-1-phenyl-3-(4-phenyl-4-(4-(pyridin-4-yl)piperazin-1-yl)piperidin-1-yl)propyl)naphthalene-2-sulfonamide] here?
Its value is 65%.

For `Cc1cc(S(=O)(=O)N2CCCCC2CCC(=O)N2CCC(c3ccccc3)(N3CCN(c4ccncc4)CC3)CC2)c(C)cc1Cl` (centres unmarked) [Compound 99, 3-(1-(4-chloro-2,5-dimethylphenylsulfonyl)piperidin-2-yl)-1-(4-phenyl-4-(4-(pyridin-4-yl)piperazin-1-yl)piperidin-1-yl)propan-1-one], which “μ opioid receptor [1 μM] % inhibition” value is on record?
The value was 36%.

Which “μ opioid receptor [1 μM] % inhibition” value does the source give for `O=C(COCC1CCc2ccccc2N1S(=O)(=O)c1ccc(Cl)c(Cl)c1)N1CCC(c2ccccc2)(N2CCN(c3ccncc3)CC2)CC1` (centres unmarked) [Compound 100, 2-((1-(3,4-dichlorophenylsulfonyl)-1,2,3,4-tetrahydroquinolin-2-yl)methoxy)-1-(4-phenyl-4-(4-(pyridin-4-yl)piperazin-1-yl)piperidin-1-yl)ethanone] here?
The value was 21%.

With `CN(CCC1CCC(CCc2ccccc2)(N(C)C)CC1)C(=O)COCC1CCc2ccccc2N1S(=O)(=O)c1ccc(Cl)c(Cl)c1` (centres unmarked) [Compound 101, 2-((1-(3,4-dichlorophenylsulfonyl)-1,2,3,4-tetrahydroquinolin-2-yl)methoxy)-N-(2-(4-(dimethylamino)-4-phenethylcyclohexyl)ethyl)-N-methylacetamide] as the molecule, how does the “μ opioid receptor [1 μM] % inhibition” value read?
Its value is 36%.

With `CN(CCC1CCC(CCc2ccccc2)(N(C)C)CC1)C(=O)CC(NS(=O)(=O)c1ccc2ccccc2c1)c1ccccc1` (centres unmarked) [Compound 102, N-(2-(4-(dimethylamino)-4-phenethylcyclohexyl)ethyl)-N-methyl-3-(naphthalene-2-sulfonamido)-3-phenylpropanamide] as the molecule, how does the “μ opioid receptor [1 μM] % inhibition” value read?
Its value is 81%.

How did the “μ opioid receptor [1 μM] % inhibition” value turn out when `CN(CCC1CCC(Cc2ccccc2)(N2CCCC2)CC1)C(=O)COCC1CCc2ccccc2N1S(=O)(=O)c1ccc(Cl)c(Cl)c1` (centres unmarked) [Compound 104, N-(2-(4-benzyl-4-(pyrrolidin-1-yl)cyclohexyl)ethyl)-2-((1-(3,4-dichlorophenylsulfonyl)-1,2,3,4-tetrahydroquinolin-2-yl)methoxy)-N-methylacetamide] was run?
Its value is 26%.

Which “μ opioid receptor [1 μM] % inhibition” value does the source give for `CN(C)C1(CCc2ccccc2)CCN(C(=O)CC(NS(=O)(=O)c2ccc3ccccc3c2)c2ccccc2)CC1` (centres unmarked) [Compound 105, N-(3-(4-(dimethylamino)-4-phenethylpiperidin-1-yl)-3-oxo-1-phenylpropyl)naphthalene-2-sulfonamide] here?
Its value is 55%.

`CN(CCC1CCC(c2ccccc2)(N2CCCC2)CC1)C(=O)CC1CCCCN1S(=O)(=O)c1cccc(C(F)(F)F)c1` (centres unmarked) [Compound 106, N-methyl-N-(2-(4-phenyl-4-(pyrrolidin-1-yl)cyclohexyl)ethyl)-2-(1-(3-(trifluoromethyl)phenylsulfonyl)piperidin-2-yl)acetamide] was tested. Which “μ opioid receptor [1 μM] % inhibition” value did it give?
Its value is 78%.

Which “μ opioid receptor [1 μM] % inhibition” value does the source give for `Cc1cc(S(=O)(=O)N2CCCCC2CCC(=O)N(C)CCC2CCC(c3ccccc3)(N(C)C)CC2)c(C)cc1Cl` (centres unmarked) [Compound 107, 3-(1-(4-chloro-2,5-dimethylphenylsulfonyl)piperidin-2-yl)-N-(2-(4-(dimethylamino)-4-phenylcyclohexyl)ethyl)-N-methylpropanamide] here?
Its value is 99%.

With `CN1CCN(C2(Cc3ccccc3)CCN(C(=O)COCC3CCc4ccccc4N3S(=O)(=O)c3ccc(Cl)c(Cl)c3)CC2)CC1` (centres unmarked) [Compound 108, 1-(4-benzyl-4-(4-methylpiperazin-1-yl)piperidin-1-yl)-2-((1-(3,4-dichlorophenylsulfonyl)-1,2,3,4-tetrahydroquinolin-2-yl)methoxy)ethanone] as the molecule, how does the “μ opioid receptor [1 μM] % inhibition” value read?
Its value is 8%.

For `CN(C)C1(c2ccccc2)CCN(C(=O)COCC2CCc3ccccc3N2S(=O)(=O)c2ccc(Cl)c(Cl)c2)CC1` (centres unmarked) [Compound 109, 2-((1-(3,4-dichlorophenylsulfonyl)-1,2,3,4-tetrahydroquinolin-2-yl)methoxy)-1-(4-(dimethylamino)-4-phenylpiperidin-1-yl)ethanone], which “μ opioid receptor [1 μM] % inhibition” value is on record?
The value was 94%.

Which “μ opioid receptor [1 μM] % inhibition” value does the source give for `Cc1cc(S(=O)(=O)N2CCCCC2CCC(=O)N2CCC(c3ccccc3)(N3CCN(C)CC3)CC2)c(C)cc1Cl` (centres unmarked) [Compound 110, 3-(1-(4-chloro-2,5-dimethylphenylsulfonyl)piperidin-2-yl)-1-(4-(4-methylpiperazin-1-yl)-4-phenylpiperidin-1-yl)propan-1-one] here?
The value was 54%.

For `CN(CCC1CCC(c2ccccc2)(N(C)C)CC1)C(=O)COCC1CCc2ccccc2N1S(=O)(=O)c1ccc(Cl)c(Cl)c1` (centres unmarked) [Compound 111, 2-((1-(3,4-dichlorophenylsulfonyl)-1,2,3,4-tetrahydroquinolin-2-yl)methoxy)-N-(2-(4-(dimethylamino)-4-phenylcyclohexyl)ethyl)-N-methylacetamide], which “μ opioid receptor [1 μM] % inhibition” value is on record?
Its value is 100%.

With `CN(CC1CCC(Cc2ccccc2)(N2CCCC2)CC1)C(=O)CC(NS(=O)(=O)c1ccc2ccccc2c1)c1ccccc1` (centres unmarked) [Compound 112, N-((4-benzyl-4-(pyrrolidin-1-yl)cyclohexyl)methyl)-N-methyl-3-(naphthalene-2-sulfonamido)-3-phenylpropanamide] as the molecule, how does the “μ opioid receptor [1 μM] % inhibition” value read?
The value was 19%.

For `CN(CCC1CCC(CCc2ccccc2)(N2CCCC2)CC1)C(=O)CC(NS(=O)(=O)c1ccc2ccccc2c1)c1ccccc1` (centres unmarked) [Compound 114, N-methyl-3-(naphthalene-2-sulfonamido)-N-(2-(4-phenethyl-4-(pyrrolidin-1-yl)cyclohexyl)ethyl)-3-phenylpropanamide], which “μ opioid receptor [1 μM] % inhibition” value is on record?
The value was 40%.

With `CN1CCN(C2(c3ccccc3)CCN(C(=O)COCC3CCc4ccccc4N3S(=O)(=O)c3ccc(Cl)c(Cl)c3)CC2)CC1` (centres unmarked) [Compound 115, 2-((1-(3,4-dichlorophenylsulfonyl)-1,2,3,4-tetrahydroquinolin-2-yl)methoxy)-1-(4-(4-methylpiperazin-1-yl)-4-phenylpiperidin-1-yl)ethanone] as the molecule, how does the “μ opioid receptor [1 μM] % inhibition” value read?
The value was 9%.

How did the “μ opioid receptor [1 μM] % inhibition” value turn out when `Cc1cc(S(=O)(=O)N2CCCCC2CCC(=O)N(C)CCC2CCC(Cc3ccccc3)(N3CCCC3)CC2)c(C)cc1Cl` (centres unmarked) [Compound 117, N-(2-(4-benzyl-4-(pyrrolidin-1-yl)cyclohexyl)ethyl)-3-(1-(4-chloro-2,5-dimethylphenylsulfonyl)piperidin-2-yl)-N-methylpropanamide] was run?
Its value is 55%.
